One data set has as its system MIA PaCa-2. Nature of the data set: Cell viability (Cell Titer-Glo) and Combination Index. The settings on record: MIA PaCa-2, 5 days.
The next data set deals with MCF-7. Nature of the data set: Cell viability and Combination Index.
The test system of a further data set is T47D. Nature of the data set: Cell viability and Combination Index.
Data set [1] deals with skeletal (SkMII) and smooth (SmMII) muscle myosin. Nature of the data set: Skeletal and smooth muscle myosin inhibition.
Another data set can be described thus: Tolerability in vivo. The following applies: mouse.
Data set [2] in a line: In vitro DMPK: cell permeability and protein binding.
Another data set has as its target P-glycoprotein (Pgp) (Homo sapiens, UniProt P08183). Nature of the data set: In vitro DMPK: P-glycoprotein substrate.
Data set [3] can be described thus: In vivo brain/plasma ratio. The following applies: mice, 10mg/kg.
Another data set concerns healthy cells in culture. Nature of the data set: Toxicity to healthy cells in culture. The settings on record: non-toxic up to.
The test system of data set [4] is Murine proneural and mesenchymal GBM cell lines. Nature of the data set: Dose response, cell viability of murine GBM lines. The following applies: 72 h.
The test system of a further data set is primary human GBM lines. Nature of the data set: Dose response, cell viability of primary human GBM lines. The settings on record: 72 h, all tested cell lines (murine and human).
The subject of data set [5] is Trp53-deleted (Trp53(-/-)) murine GBM cells. Nature of the data set: Cell viability (CellTiter-Glo) dose response with kinase inhibitors and MuSyC synergy. (In general: ATP-based viability assays read luminescence as a measure of living cells.)
Data set [6] concerns human patient-derived xenograft (PDX) model. Nature of the data set: Survival in human PDX model of GBM. The settings on record: Compound 1 5 mg/kg SC with radiation 2 Gy/dose x 5 daily doses, human PDX (FIG. 6A).
A further data set has as its system MDA-MB-468. Nature of the data set: Cell viability (Cell Titer-Glo) and Combination Index. The following applies: MDA-MB-468, 5 days.
In a further data set the test system is PANC-1. Described as above. The following applies: PANC-1, 5 days.
The next data set concerns NMIIA and IIB. The following applies: cited from earlier work.
The subject of data set [7] is Trp53-deleted genetically engineered model (GEMM) of GBM. Nature of the data set: Kaplan Meier survival in Trp53-deleted GEMM of GBM.
The subject of the next data set is cardiac myosin II (CMII). The settings on record: cited from earlier work.
For data set [8] the following is noted: doses as low as 0.5 mg/kg (IV); cited from earlier work.
Setting [9] is: read-out: drug (µM) at Fa=0.5 in combination, in combination with Compound 1.
Setting [10] is: read-out: Compound 1 (µM) at Fa=0.5 in combination, in combination with Everolimus.
Setting [11] is: read-out: EC50 of compound 1, alone.

Protein sequences, listed by entry. Tags and fused reporters are not part of them.
UniProt P08183, whole entry: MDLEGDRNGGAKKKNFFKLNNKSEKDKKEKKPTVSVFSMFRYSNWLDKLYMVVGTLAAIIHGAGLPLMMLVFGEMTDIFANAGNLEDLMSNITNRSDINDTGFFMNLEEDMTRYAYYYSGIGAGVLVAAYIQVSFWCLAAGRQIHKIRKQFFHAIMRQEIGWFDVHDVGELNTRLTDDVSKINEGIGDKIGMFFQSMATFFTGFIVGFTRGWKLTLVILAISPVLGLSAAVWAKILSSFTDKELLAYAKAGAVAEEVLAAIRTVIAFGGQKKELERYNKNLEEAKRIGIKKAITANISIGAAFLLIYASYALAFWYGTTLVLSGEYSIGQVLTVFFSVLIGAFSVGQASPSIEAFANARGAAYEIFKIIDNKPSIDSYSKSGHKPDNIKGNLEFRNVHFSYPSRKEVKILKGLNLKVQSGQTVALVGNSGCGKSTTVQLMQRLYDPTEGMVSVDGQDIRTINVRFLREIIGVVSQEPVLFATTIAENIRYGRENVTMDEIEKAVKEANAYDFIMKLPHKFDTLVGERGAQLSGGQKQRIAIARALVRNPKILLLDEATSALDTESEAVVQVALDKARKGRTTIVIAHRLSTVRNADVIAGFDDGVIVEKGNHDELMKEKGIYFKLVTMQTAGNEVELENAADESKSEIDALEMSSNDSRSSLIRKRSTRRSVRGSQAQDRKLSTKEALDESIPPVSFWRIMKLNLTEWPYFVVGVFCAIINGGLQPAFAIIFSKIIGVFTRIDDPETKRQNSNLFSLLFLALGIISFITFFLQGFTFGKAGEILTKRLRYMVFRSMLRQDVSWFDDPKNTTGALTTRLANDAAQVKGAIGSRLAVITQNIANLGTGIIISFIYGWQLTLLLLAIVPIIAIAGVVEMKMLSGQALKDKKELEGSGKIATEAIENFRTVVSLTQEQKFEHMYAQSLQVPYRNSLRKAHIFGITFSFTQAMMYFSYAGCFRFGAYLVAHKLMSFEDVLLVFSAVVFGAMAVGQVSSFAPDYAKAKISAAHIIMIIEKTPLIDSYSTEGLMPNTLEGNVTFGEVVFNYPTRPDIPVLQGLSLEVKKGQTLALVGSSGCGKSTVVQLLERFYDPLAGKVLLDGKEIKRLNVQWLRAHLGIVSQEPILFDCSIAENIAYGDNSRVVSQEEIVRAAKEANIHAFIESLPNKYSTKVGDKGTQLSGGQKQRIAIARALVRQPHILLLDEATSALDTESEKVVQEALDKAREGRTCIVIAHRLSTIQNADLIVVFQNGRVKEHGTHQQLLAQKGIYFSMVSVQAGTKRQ

Structures are written as SMILES. Where two headings read alike, the source gives them in different places. Bounds are passed on as bounds.

For the molecule `O=C(c1cc(Cc2n[nH]c(=O)c3ccccc23)ccc1F)N1CCN(C(=O)C2CC2)CC1`, the EC50 with MIA PaCa-2 (read-out: EC50 of drug, alone) turned out to be 7 µM; in the data set with MIA PaCa-2 (setting [9]), 4.41 µM; in the data set with MCF-7 (read-out: EC50 of drug, MCF-7, 3 days, alone) it was 197 µM; with T47D (read-out: EC50 of drug, 3 days, alone) it was 14.2 µM.

As for `Cc1ccc2c(c1)C(=O)[C@]1(O)CCN(c3ccc4nc(C)ccc4c3)C1=N2`, the “skeletal (SkMII) and smooth (SmMII) muscle myosin inhibition” value in [1] was “some skeletal (SkMII) and smooth (SmMII) muscle myosin inhibition”. The tolerability entry in “Tolerability in vivo” is “well-tolerated”. Further, in data set [2], the protein binding entry is on record as “protein bound”. Also, the “P-glycoprotein (Pgp) substrate” value on P-glycoprotein (Pgp) is given as “not a P-glycoprotein (Pgp) substrate”. The in vivo brain/plasma ratios in data set [3] was found to be 2.3. Also, the “concentration non-toxic to healthy cells in culture” value with healthy cells in culture is listed as more than 30 µM. For the same molecule, the EC50 in data set [4] is 4 to 6 µM; in the data set with primary human GBM lines, “low micromolar range”; with MDA-MB-468 (setting [10]), 5 µM; in the data set on MDA-MB-468 (setting [11]), 10.2 µM; with MIA PaCa-2 (setting [10]), 5 µM; with MIA PaCa-2 (read-out: Compound 1 (µM) at Fa=0.5 in combination, in combination with Olaparib) it was 0.94 µM. For the same molecule, the EC50 in the data set with MIA PaCa-2 (setting [11]) is 6 µM; in the data set with PANC-1 (setting [10]), 16.7 µM; in the data set on PANC-1 (setting [11]) it was 25.1 µM; in the data set with MCF-7 (read-out: Compound 1 (µM) at Fa=0.5 in combination, MCF-7, 2 days, in combination with Everolimus), 5 µM; with MCF-7 (read-out: Compound 1 (µM) at Fa=0.5 in combination, MCF-7, 3 days, in combination with Olaparib), 5 µM; with MCF-7 (read-out: Compound 1 (µM) at Fa=0.5 in combination, MCF-7, 5 days, in combination with Tamoxifen), 5 µM. For the same molecule, the EC50 with MCF-7 (read-out: EC50 of compound 1, MCF-7, 2 days, alone) was 9.4 µM; in the data set with MCF-7 (read-out: EC50 of compound 1, MCF-7, 3 days, alone), 9.4 µM; in the data set with MCF-7 (read-out: EC50 of compound 1, MCF-7, 5 days, alone), 15.3 µM; in the data set with T47D (read-out: Compound 1 (µM) at Fa=0.5 in combination, 2 days, in combination with Everolimus), 5 µM; in the data set with T47D (read-out: Compound 1 (µM) at Fa=0.5 in combination, 3 days, in combination with Olaparib) it was 5 µM; with T47D (read-out: Compound 1 (µM) at Fa=0.5 in combination, 5 days, in combination with Tamoxifen), 5 µM. For the same molecule, the EC50 in the data set on T47D (read-out: EC50 of compound 1, 2 days, alone) came out at 7.5 µM; in the data set on T47D (read-out: EC50 of compound 1, 3 days, alone) it was 7.5 µM; in the data set with T47D (read-out: EC50 of compound 1, 5 days, alone) it was 6.5 µM. The “shift of the EC50 for saracatinib to the left” value in data set [5] (5 µM Compound 1 with a range of saracatinib concentrations) is more than 1000 fold. The “shift of the EC50 for sunitinib to the left” value in data set [5] (5 µM Compound 1 with a range of sunitinib concentrations) is reported as ~ 20 fold. Besides, the mouse survival result in data set [6] is listed as “prolonged mouse survival to a degree greater than the sum of each treatment”; in data set [7] (Compound 1 5 mg/kg SC with radiation 2 Gy/dose x 5 daily doses, p53-deleted GEMM (FIG. 6B)), “prolonged mouse survival to a degree greater than the sum of each treatment”. Moreover, the “potency against both NMIIA and IIB” value in the data set on NMIIA and IIB is given as “equal potency”. Further, the “selectivity profile for NMII over CMII” value in the data set with NMIIA and IIB was “strong selectivity profile”. Besides, in data set [7] (single agent (Compound 1 10 mg/kg IP, sunitinib 40 mg/kg oral gavage), from day 5 post-retroviral injection), the “increase in median survival over vehicle” value stood at 32%.

On to `Cc1ccc2c(c1)C(=O)C1(O)CCN(c3ccccc3)C1=N2` (stereo not drawn), for which the in vivo brain/plasma ratios in data set [3] worked out at 0.9. Besides, the “inhibition of cardiac myosin II (CMII)” value in the data set on cardiac myosin II (CMII) is recorded as “potent inhibition”. Moreover, the tolerability entry in data set [8] was “poorly tolerated”.

In the case of `CO[C@H]1C[C@@H]2CC[C@@H](C)[C@@](O)(O2)C(=O)C(=O)N2CCCC[C@H]2C(=O)O[C@H]([C@H](C)C[C@@H]2CC[C@@H](OCCO)[C@H](OC)C2)CC(=O)[C@H](C)/C=C(\C)[C@@H](O)[C@@H](OC)C(=O)[C@H](C)C[C@H](C)/C=C/C=C/C=C/1C`, the EC50 came to 10 µM with MDA-MB-468 (read-out: EC50 of drug, alone); 0.05 µM with MDA-MB-468 (setting [9]); 6.4 µM in the data set on MIA PaCa-2 (read-out: EC50 of drug, alone); 0.02 µM with MIA PaCa-2 (setting [9]); 103 µM with PANC-1 (read-out: EC50 of drug, alone); 10.2 µM in the data set with PANC-1 (setting [9]). For the same molecule, the EC50 with MCF-7 (read-out: EC50 of drug, MCF-7, 2 days, alone) is 0.6 µM; in the data set with MCF-7 (read-out: drug (µM) at Fa=0.5 in combination, MCF-7, 2 days, in combination with Compound 1), 0.01 µM; in the data set with T47D (read-out: EC50 of drug, 2 days, alone), 15.5 µM; in the data set on T47D (read-out: drug (µM) at Fa=0.5 in combination, 2 days, in combination with Compound 1), 0.06 µM.

Values taken from patent EP4629995B1, “COMBINATION THERAPY WITH AN ANALOG OF BLEBBISTATIN FOR THE TREATMENT OF CANCER” (dated 2026).
